The results in this text go back to US7947270B2, “Removing dental plaque with krill enzymes” (Arcimboldo AB, priority 1992, dated 2011).

This assay concerns the target krill-derived multifunctional hydrolase (antarctic krill). Briefly: cell-based or functional assay.

With “Bovine pancreatic trypsin inhibitor (from UniProt P00974 36-93)”, the % activity remaining of Prep-3 with 1 µM inhibitor, pH 9.5 (% activity remaining) was 2; the % activity remaining of Prep-8 with 1 µM inhibitor, pH 9.5 (% activity remaining) is 1; the % activity remaining of Prep-11 with 1 µM inhibitor, pH 9.5 (% activity remaining) came to 1.
